These molecules were tested against SCD-1 (Homo sapiens, UniProt O00767) (assay: Stearoyl-CoA desaturase assay (HepG2 cell P2 pellet)). Settings: read-out: Ave IC50 nM; Table 1, compounds of formula (Ia); protein from HepG2 cell P2 pellet, 20 μM stearoyl-CoA, 15 min at 25° C.

Amino acid sequences for entries named in this document (tags omitted).
UniProt O00767, whole entry: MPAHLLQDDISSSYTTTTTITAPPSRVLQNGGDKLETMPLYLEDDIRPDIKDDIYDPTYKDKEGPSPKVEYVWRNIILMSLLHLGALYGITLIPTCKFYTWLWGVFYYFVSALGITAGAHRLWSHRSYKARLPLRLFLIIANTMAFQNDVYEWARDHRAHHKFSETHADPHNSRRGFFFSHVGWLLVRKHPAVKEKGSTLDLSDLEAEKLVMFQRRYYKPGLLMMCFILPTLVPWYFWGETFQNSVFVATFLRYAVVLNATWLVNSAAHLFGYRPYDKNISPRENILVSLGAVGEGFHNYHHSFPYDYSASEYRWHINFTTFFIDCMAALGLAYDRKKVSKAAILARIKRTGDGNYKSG

IC50 [nM] | SMILES
500 to 10000 | CCc1ccc(CN2CCC3(CCN(C(=O)CNC(=O)CCC(=O)OC)CC3)Oc3ccccc32)cc1
500 to 10000 | CCc1ccc(CN2CCC3(CCN(C(=O)CNC(=O)CCC(=O)O)CC3)Oc3ccccc32)cc1
500 to 10000 | CC(=O)NCC(=O)N1CCC2(CC1)CCN(Cc1cccc(C(F)(F)F)c1)c1cc(F)ccc1O2
500 to 10000 | CC(=O)NCC(=O)N1CCC2(CC1)CCN(Cc1cccc(C(F)(F)F)c1)c1cccc(Cl)c1O2

Same assay, conditions: read-out: Ave IC50 nM; Table 2, compounds of formula (Ib); protein from HepG2 cell P2 pellet, 20 μM stearoyl-CoA, 15 min at 25° C.

IC50 [nM] | SMILES
50 to 499 | CC(C)(C)OC(=O)CCNC(=O)c1cnc(N2CCC3(CC2)CCN(Cc2cccc(C(F)(F)F)c2)c2cccc(F)c2O3)s1
0.5 to 49 | COC(=O)CCNC(=O)c1cnc(N2CCC3(CC2)CCN(Cc2ccc(C(C)(C)C)cc2)c2cccc(F)c2O3)s1
0.5 to 49 | CNC(=O)c1cnc(N2CCC3(CC2)CCN(Cc2cccc(C(F)(F)F)c2)c2cccc(F)c2O3)s1

Same assay, conditions: read-out: Ave IC50 nM; Table 3, compounds of formula (Ic); protein from HepG2 cell P2 pellet, 20 μM stearoyl-CoA, 15 min at 25° C.

IC50 [nM] | SMILES
500 to 10000 | O=C(NCC1CCCCC1)c1ccc(N2CCC3(CC2)CCN(Cc2cccc(C(F)(F)F)c2)c2ccccc2O3)nn1
50 to 499 | COC(=O)CCNC(=O)c1ccc(N2CCC3(CC2)CCN(Cc2ccc(C(C)(C)C)cc2)c2cccc(F)c2O3)nn1
50 to 499 | CC(C)(C)c1ccc(CN2CCC3(CCN(c4ccc(C(=O)NCCC5CC5)cn4)CC3)Oc3ccccc32)cc1
50 to 499 | CC(C)(C)c1ccc(CN2CCC3(CCN(c4ccc(C(=O)NCCc5ccncc5)cn4)CC3)Oc3c(F)cccc32)cc1
50 to 499 | CC(C)(C)c1ccc(CN2CCC3(CCN(c4ccc(C(=O)NCCc5cccnc5)cn4)CC3)Oc3c(F)cccc32)cc1
